The target in the assay is human β3 (Homo sapiens, UniProt P13945). Description: Human β3-agonist activities (cAMP in transfected CHO cells). The protocol:
Human β3-Agonist Activities
Human β3-agonist activities were determined using CHO (Chinese hamster ovary) cells transfected with pcDNA3 (mfd. by Invitrogen) to which human β3 gene had been inserted. Human β3 fragment was first obtained from human adipose tissue cDNA (mfd. by Clonetech) by PCR using the primer of β3 (Krief, et al., J. Clin. Invest., vol. 91, pp. 344-349 (1993)). The human β3 fragment thus obtained was used as a probe to obtain the full length human β3 gene from a human genomic library (mfd. by Clonetech). The above cells were cultured in a Ham F-12 medium supplemented with 10% fetal bovine serum, 400 μg/mL geneticin (Gibco BRL), 100 U/mL penicillin and […] streptomycin. After placing these cells (5×10^5) into a 6-well plate and culturing them for 24 hours, they were allowed to stand on a serum-free Ham F-12 medium for 2 hours. The compound was first dissolved in DMSO, repeatedly diluted by ten times with Ham F-12 supplemented with 1 mM isobutylmethyl-xanthine and 1 mM ascorbic acid to a final concentration of from 10^−5 to 10^−12 M, and then added to the cells. After the cells were cultured for 30 minutes, the medium was removed, followed by addition of 0.5 mL of 1 N NaOH. […] The medium was stirred and then centrifuged, followed by quantitating cAMP with cAMP EIA kit (mfd. by Cayman). […]

By UniProt entry, the sequences of proteins in these tests, tags left out.
UniProt P13945, whole entry: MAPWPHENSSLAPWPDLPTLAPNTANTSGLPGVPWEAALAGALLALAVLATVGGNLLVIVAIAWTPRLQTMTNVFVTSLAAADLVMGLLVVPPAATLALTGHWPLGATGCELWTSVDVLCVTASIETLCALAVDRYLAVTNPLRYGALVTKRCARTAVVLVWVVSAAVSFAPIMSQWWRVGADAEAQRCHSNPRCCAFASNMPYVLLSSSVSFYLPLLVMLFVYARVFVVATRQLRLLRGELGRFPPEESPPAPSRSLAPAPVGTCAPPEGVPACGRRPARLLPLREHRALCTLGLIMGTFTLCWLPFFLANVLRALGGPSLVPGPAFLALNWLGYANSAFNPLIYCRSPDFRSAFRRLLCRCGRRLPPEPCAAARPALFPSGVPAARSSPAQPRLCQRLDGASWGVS

A word on the EC50: it is the concentration giving half of the maximal effect. Higher therefore signals weaker potency.

As to `Cc1n[nH]c2cc(OCCNC[C@H](O)c3ccc(F)c(NS(C)(=O)=O)c3)ccc12`, the concentration for a half-maximal effect (EC50) (CHO cells expressing human β3, cAMP, 30 minutes) turned out to be 24 nM. Further, for the setting “Relative activities (%) as compared with isoproterenol”, the “Intrinsic activity*” value is 56%.

The values above are taken from patent publication US7271190B2, “Indazole compounds as β3 adrenoceptor agonist” (Asahi Kasei Pharma Corporation, priority 2001, dated 2007).
